Protein sequences, listed by entry. Tags and fused reporters are not part of them.
UniProt P27338, whole entry: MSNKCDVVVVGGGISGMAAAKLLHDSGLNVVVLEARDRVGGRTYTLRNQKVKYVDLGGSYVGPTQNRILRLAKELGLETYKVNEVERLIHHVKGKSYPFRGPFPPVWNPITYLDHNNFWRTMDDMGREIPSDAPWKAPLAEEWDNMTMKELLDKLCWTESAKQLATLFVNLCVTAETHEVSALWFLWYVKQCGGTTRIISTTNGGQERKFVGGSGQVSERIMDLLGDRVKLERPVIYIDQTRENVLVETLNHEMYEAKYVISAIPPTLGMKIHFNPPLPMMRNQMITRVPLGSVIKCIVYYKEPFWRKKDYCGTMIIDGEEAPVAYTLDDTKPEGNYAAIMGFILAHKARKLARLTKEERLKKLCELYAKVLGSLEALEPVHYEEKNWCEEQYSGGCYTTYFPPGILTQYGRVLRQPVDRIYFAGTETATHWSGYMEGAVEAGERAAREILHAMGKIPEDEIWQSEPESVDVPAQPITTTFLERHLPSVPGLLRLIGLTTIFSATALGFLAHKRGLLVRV

In article PMC11956017, “Design of Benzyl-triazolopyrimidine-Based NADPH Oxidase Inhibitors Leads to the Discovery of a Potent Dual Covalent NOX2/MAOB Inhibitor” (Journal of Medicinal Chemistry, 2025):

Assays:
[1] = molecular target: T1, human MAOB (Homo sapiens, UniProt P27338); test: Purified MAOB, Amplex Red/horseradish peroxidase coupled assay; type: biochemical; settings: abstract
T1 construct: made in house; host or cells: Pichia pastoris
Description: IC50 values on human MAOA and human MAOB were determined using the Amplex Red/horseradish peroxidase coupled assay. […] Measurements were performed using a ClarioStar plate reader (excitation 572 nm and emission 583 nm) (BMG Labtech). IC50 values were obtained by fitting the percentage of inhibition versus log(inhibitor concentration) using GraphPad software 7.0. The covalent modification of the flavin upon the reaction with the propargylamine-containing inhibitors was monitored spectrophotometrically using a diode array UV/visible spectrophotometer (Agilent Technologies). The reaction was started by adding a 5-fold molar excess of compound 9a to 20 μM protein in a volume of 100 μL of a purification buffer. The cofactor covalent modification was monitored over time following the shift of the enzyme-bound flavin (peaks at 370 and 456 nm) to 410 nm (ε410 = 23,500 M^–1 cm^–1) (Figure S10).

[2] = system: human NOX2; test: Human NOX2 isolated membranes, MCLA assay; type: biochemical; settings: from membrane IC50 values
Description: IC50 determinations were performed as described, with the same aforementioned modifications for covalent inhibition. Briefly, 20 μg of NOX2-p22^phox membranes was added to a reaction mix with a 65 mM sodium phosphate buffer (pH 7.0), 0.5 μM FAD, 130 μM LiDS, 160 nM p67^phox, p47^phox, Rac1 Q61L, and 1 μM MCLA or 200 μM bovine cytochrome c. The estimated final protein concentration based on the heme’s absorbance was 60 nM. Compounds were incubated for 1 h at 25 °C, at varying concentrations. The reaction started by adding 240 μM NADPH, and measurements were taken by using a GloMax plate reader (Promega; MCLA) or a Cary 100 UV–vis spectrophotometer (Varian; cytochrome c).

selectivity for MAOB over MAOA [1]: 465 fold
Compound: C#CCN(C)Cc1ccc(Cn2nnc3c(Sc4nc5ccccc5o4)ncnc32)cc1 [Compound 9a, N-(4-((7-(Benzo[d]oxazol-2-ylthio)-3H-[1,2,3]triazolo[4,5-d]pyrimidin-3-yl)methyl)benzyl)-N-methylprop-2-yn-1-amine]
selectivity index NOX2/NOX1 [2]: 39 | selectivity index NOX2/NOX4 [2]: 74 | selectivity index NOX2/NOX5 [2]: 9
